# Publication PMC6941846 (Bioorganic & medicinal chemistry, 2019)
# System: HEK293T cells
# Conditions: inhibitor alone at 3 μM, 48 h
smiles,measurement,value
Cc1ccc(NC(=O)c2ccc(CN3CCN(C)CC3)cc2)cc1Nc1nccc(-c2cccnc2)n1 [Imatinib],cells killed,12.5%
